Calls of active or inactive are those of the source. No cut-off for these calls is given here.
Experiments:
[1] = target: T1, Peptidyl-prolyl cis-trans isomerase A (Homo sapiens, UniProt P62937); experiment: Inhibition of human N-terminal his-tagged CypA extracted from Escherichia coli BL21 (DE3) assessed as refolding of RNAase T1 at 20 uM by fluorescence based spectrofluorometry analysis relative to control
[2] = Neurotoxicity in Abeta-induced C57BL/6 mouse at 5 uM by JC-1 assay relative to control; assay type: toxicity; details: in vivo
[3] = target: T1, Peptidyl-prolyl cis-trans isomerase A; experiment: Binding affinity to human N-terminal his-tagged CypA extracted from Escherichia coli BL21 (DE3) assessed as change in melting temperature at 20 uM by differential scanning fluorimetry analysis

By UniProt entry, the sequences of proteins in these tests, tags left out.
UniProt P62937, whole entry, looked up: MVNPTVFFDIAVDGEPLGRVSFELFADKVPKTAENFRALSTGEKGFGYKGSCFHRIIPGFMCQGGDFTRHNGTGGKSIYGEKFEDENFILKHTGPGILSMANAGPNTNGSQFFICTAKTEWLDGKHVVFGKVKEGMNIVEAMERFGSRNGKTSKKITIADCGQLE

Structure (SMILES) | inhibition [1] [%] | Activity [2] [%] | Activity [3]
O=C(Nc1ccc([N+](=O)[O-])cc1)Nc1ncccc1OCc1cccc(Cl)c1 | 90 | – | –
Cc1ccc(NC(=S)Nc2nccnc2OCc2cccc(F)c2)cc1 | – | 95 | –
O=C(Nc1ccc([N+](=O)[O-])cc1)Nc1ncccc1OCc1ccccc1 | 90 | – | Active
O=C(NCCN1CCNCC1)Nc1ncccc1OCc1ccccc1 | 90 | – | –
O=C(Nc1ccccc1F)Nc1ncccc1OCc1cccc(Cl)c1 | – | 89 | Active

Source: ChEMBL document CHEMBL6071183, “Neuroprotective Effect of 2-(Benzyloxy)arylureas Is Not Related to CypD Inhibition nor Suppression of mPTP Opening” (ACS Med Chem Lett, 2024)
